Test results from patent US6982260B1, “Quinazolines and their use for inhibiting cyclin-dependent kinase enzymes” (Warner-Lambert Company, priority 1999, dated 2006).

Key:
[1] = molecular target: cdk2/A (Homo sapiens, UniProt P24941); assay: cdk2/A kinase assay; type: biochemical; details: 32P incorporation into retinoblastoma, 25° C., 15 minutes; read-out: Cdk2A IC50
Procedure: (§1) All components except the ATP were added to the wells, and the plate was placed on a plate mixer for 2 minutes. The reaction was begun by addition of [^32P]ATP, and the plate was incubated at 25° C. for 15 minutes. The reaction was terminated by addition of 0.1 mL of 20% TCA. The plate was kept at 4° C. for at least 1 hour to allow the substrate to precipitate. The wells were then washed five times with 0.2 mL of 10% TCA and ^32P incorporation determined with a beta plate counter (Wallac Inc., Gaithersburg, Md.).

[2] = molecular target: cdk2/cyclinE (Homo sapiens, UniProt P24941); assay: cdk2/cyclinE kinase assay; type: biochemical; details: 32P incorporation into retinoblastoma, 25° C., 15 minutes; read-out: Cdk2E IC50
Procedure: as §1

Compound: COc1ccc2cnc(Nc3ccc(N4CCCC4)cc3)nc2c1C1CCCC1 [Example 24, (8-Cyclopentyl-7-methoxy-quinazolin-2-yl)-(4-pyrrolidin-1-yl-phenyl)-amine]
- IC50 [1]: 7.69 µM
- IC50 [2]: > 5 µM
